# Values quoted from earlier work as cited in patent US20170007595A1, “NSD3 INHIBITORS FOR TREATMENT OF CANCERS” (THE BRIGHAM AND WOMEN'S HOSPITAL, INC., priority 2014, published 2017).
# pIC50: −log10 of the molar value.
# Tested on: BET proteins
# Conditions: cited from earlier work
smiles,measurement,value
CCNC(=O)C[C@@H]1N=C(c2ccc(Cl)cc2)c2cc(OC)ccc2-n2c(C)nnc21 [I-BET-762],pIC50,~7.46
